For this assay, the system named is Spinacia oleracea. In words: Inhibition of photophosphorylation in Spinacia oleracea (spinach) leaves chloroplasts by titrimetry. Type of assay: functional. Summed up: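 Intact spinach chloroplasts (20 μg Chl/mL) were osmotically broken in 3 mL of weakly buffered medium: 100 mM sorbitol, 10 mM KCl, 5 mM MgCl2, 0.5 mM KCN, 1 mM tricine-KOH pH 8.0, 50 μM MV and 1 mM ADP. ATP synthesis was taken from the medium alkalization rate in the linear part of illumination, calibrated by HCl back-titration, as μmol ATP (mg Chl)-1 h-1. I50 was obtained from concentration-activity plots; three replicates.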

Turning to `C[C@H]1C(=O)CC[C@@H]2[C@]1(C)CC[C@H]1[C@@]2(C)CC[C@@]2(C)[C@@H]3CC(C)(C)CC[C@]3(CO)CC[C@]12C` [CANOPHYLLOL], the inhibition entry was “Dose-dependent effect”.
In the case of `C[C@H]1[C@@H](O)CC[C@@H]2[C@]1(C)CC[C@H]1[C@@]2(C)CC[C@@]2(C)[C@@H]3CC(C)(C)CC[C@]3(C)CC[C@]12C` [EPIFRIEDELINOL], the inhibition entry was “Dose-dependent effect”.

Source of the values: ChEMBL document CHEMBL3046214, “Friedelane triterpenes from Celastrus vulcanicola as photosynthetic inhibitors” (J Agric Food Chem, 2010).
